Measured values as given in patent US20130345164A1, “TREATMENTS FOR CELLULAR PROLIFERATIVE DISORDERS AND IDENTIFICATION THEREOF” (UNIVERSITY OF MEDICINE AND DENTISTRY OF NEW JERSEY, priority 2010, published 2013).

Columns and labels:
[1] = test system: H460-p53 wildtype, MDAMB468-p53^R273H, HCT116-p53 null and TOV112D-p53^R175H xenograft tumors; test: Mouse xenograft tumor growth; assay type: in vivo; settings: 0.1 μg/g vs 1 μg/g
Method: Xenograft tumors were created by subcutaneous flank injections of 8×10^6 human tumor cells and allowed to grow to an initial size ranging from 50-200 mm^3 prior to initiation of NSC319726 (1 μg/g) (versus control, “ctl”) administered intravenously once daily.

[2] = test system: tumor cell lines with endogenous R175H mutations; test: Sensitivity across human tumor cell lines with different p53 hot spot mutations; assay type: cell-based
Method: Next, assays were carried out to examine the sensitivity to NSC319726 of a human tumor cell line system that was made up of 4 cell lines expressing wild type p53, one cell line expressing p53 null cell in (SKOV3), and one ovarian carcinoma cell line containing a p53^R175H (TOV112D). […] Five tumor cell lines with endogenous […] mutations were compared, including two cell lines containing R248W mutations and three cell lines with a R273H mutation.

[3] = Toxicity assays in p53 wild type, p53 null and p53^R172H mice; assay type: in vivo; settings: 10 mg/kg intraperitoneally daily
Method: Toxicity assays were performed in p53 wild type, p53 null, and p53^R172H mice to determine if in vivo p53 mutant synthetic lethality could be detected. It was hypothesized that p53^R172H mice would experience greater toxicity for a given dose of NSC319726 as compared to the p53 wild type or null mice.
First, three groups of mice: […], p53^+/R172H/R172H mice, were compared. NSC319726 was injected intraperitoneally at 10 mg/kg daily for seven days.
Next, the dose was lowered to 5 mg/kg and three groups of mice (p53 wild type, p53 null, and p53^R172H/R172H) were compared.

[4] = test system: TOV112D-p53R175H, OVCAR3-p53 R248W and SKOV3-p53 null; test: Apoptosis by Annexin V staining in ovarian carcinoma cell lines; assay type: cell-based, human; settings: TOV112D vs OVCAR3 and SKOV3
From the text: Briefly, apoptosis was examined by Annexin V staining using standard methods.

C/C(=N\NC(=S)N1CCC1)c1ccccn1 [NSC319726]
xenograft growth inhibition at 10-fold lower dose [1]: no difference in growth inhibition
sensitivity fold higher than other p53 mutant alleles ([2]; R175H lines (except RXF393) vs R248W and R273H lines): approximately 10 fold
sensitivity fold higher than other p53 mutant alleles, in some instances ([2]; R175H lines vs R248W and R273H lines, some instances): ~100 fold
mice died by day 3 [3]: all seven
Annexin V staining in TOV112D relative to the other two ovarian cell lines [4]: ~3 fold
